Measurements reported in ChEMBL document CHEMBL4024713, “Novel aryl piperazines for alleviation of 'andropause' associated prostatic disorders and depression” (Eur J Med Chem, 2017).

Molecular target: T1, Alpha-1A adrenergic receptor (Homo sapiens) (UniProt P35348)
T1 sequence (whole entry): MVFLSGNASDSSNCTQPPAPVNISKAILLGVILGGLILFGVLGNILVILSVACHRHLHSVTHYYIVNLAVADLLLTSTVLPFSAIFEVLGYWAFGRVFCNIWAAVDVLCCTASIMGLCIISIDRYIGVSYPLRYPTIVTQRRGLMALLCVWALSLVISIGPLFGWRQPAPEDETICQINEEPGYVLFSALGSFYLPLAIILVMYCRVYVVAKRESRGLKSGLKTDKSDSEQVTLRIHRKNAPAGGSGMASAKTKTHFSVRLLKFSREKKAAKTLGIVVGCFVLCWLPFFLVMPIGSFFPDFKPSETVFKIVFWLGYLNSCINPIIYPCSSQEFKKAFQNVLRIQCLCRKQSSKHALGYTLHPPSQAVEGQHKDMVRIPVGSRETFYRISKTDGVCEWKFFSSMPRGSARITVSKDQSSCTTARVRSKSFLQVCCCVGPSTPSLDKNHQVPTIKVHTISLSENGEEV
Assay: Antagonist activity at recombinant human alpha1a adrenergic receptor expressed in human Chem1 cell membrane assessed as reduction in ephinephrine-induced calcium mobilization at 1 uM by fluoforte dye based fluorescence assay relative to ephinephrine
Assay type: functional
Outline: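 α1A-adrenergic receptor-expressing Chem-1 cells, 4 x 10^4/well overnight, loaded with FluoForte calcium dye 45 min at 37 °C then 15 min at room temperature. Compounds at 1 μM; epinephrine 20 μM added at 10 s; tamsulosin 100 nM and 1 μM as reference. Fluorescence (ex 490/em 525 nm) read for 180 s as RFU.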

Row | SMILES | fold change (FC)
1 | O=[N+]([O-])c1ccc(N2CCN(CCCN3CCN(c4ccc([N+](=O)[O-])cc4)CC3)CC2)cc1 | 1.5
2 | Fc1ccccc1N1CCN(CCCN2CCN(c3ccccc3F)CC2)CC1 | 1.5
3 | O=[N+]([O-])c1cc(C(F)(F)F)ccc1N1CCN(CCCN2CCN(c3ccc(C(F)(F)F)cc3[N+](=O)[O-])CC2)CC1 | 1.6

Further lines, results first:

Row | fold change (FC) | SMILES
4 | 1.5 | c1ccc(N2CCN(CCN3CCN(c4ccccn4)CC3)CC2)nc1
5 | 1.6 | c1ccc(N2CCN(CCCN3CCN(c4ccccn4)CC3)CC2)nc1
